Patent US20230050653A1, “ROCK INHIBITOR AND PREPARATION METHOD THEREFOR AND USE THEREOF” (WUHAN LL SCIENCE AND TECHNOLOGY DEVELOPMENT CO., LTD., priority 2019, published 2023)
pIC50: −log10 of the molar value.

Protein sequences, listed by entry. Tags and fused reporters are not part of them.
UniProt O75116, whole entry: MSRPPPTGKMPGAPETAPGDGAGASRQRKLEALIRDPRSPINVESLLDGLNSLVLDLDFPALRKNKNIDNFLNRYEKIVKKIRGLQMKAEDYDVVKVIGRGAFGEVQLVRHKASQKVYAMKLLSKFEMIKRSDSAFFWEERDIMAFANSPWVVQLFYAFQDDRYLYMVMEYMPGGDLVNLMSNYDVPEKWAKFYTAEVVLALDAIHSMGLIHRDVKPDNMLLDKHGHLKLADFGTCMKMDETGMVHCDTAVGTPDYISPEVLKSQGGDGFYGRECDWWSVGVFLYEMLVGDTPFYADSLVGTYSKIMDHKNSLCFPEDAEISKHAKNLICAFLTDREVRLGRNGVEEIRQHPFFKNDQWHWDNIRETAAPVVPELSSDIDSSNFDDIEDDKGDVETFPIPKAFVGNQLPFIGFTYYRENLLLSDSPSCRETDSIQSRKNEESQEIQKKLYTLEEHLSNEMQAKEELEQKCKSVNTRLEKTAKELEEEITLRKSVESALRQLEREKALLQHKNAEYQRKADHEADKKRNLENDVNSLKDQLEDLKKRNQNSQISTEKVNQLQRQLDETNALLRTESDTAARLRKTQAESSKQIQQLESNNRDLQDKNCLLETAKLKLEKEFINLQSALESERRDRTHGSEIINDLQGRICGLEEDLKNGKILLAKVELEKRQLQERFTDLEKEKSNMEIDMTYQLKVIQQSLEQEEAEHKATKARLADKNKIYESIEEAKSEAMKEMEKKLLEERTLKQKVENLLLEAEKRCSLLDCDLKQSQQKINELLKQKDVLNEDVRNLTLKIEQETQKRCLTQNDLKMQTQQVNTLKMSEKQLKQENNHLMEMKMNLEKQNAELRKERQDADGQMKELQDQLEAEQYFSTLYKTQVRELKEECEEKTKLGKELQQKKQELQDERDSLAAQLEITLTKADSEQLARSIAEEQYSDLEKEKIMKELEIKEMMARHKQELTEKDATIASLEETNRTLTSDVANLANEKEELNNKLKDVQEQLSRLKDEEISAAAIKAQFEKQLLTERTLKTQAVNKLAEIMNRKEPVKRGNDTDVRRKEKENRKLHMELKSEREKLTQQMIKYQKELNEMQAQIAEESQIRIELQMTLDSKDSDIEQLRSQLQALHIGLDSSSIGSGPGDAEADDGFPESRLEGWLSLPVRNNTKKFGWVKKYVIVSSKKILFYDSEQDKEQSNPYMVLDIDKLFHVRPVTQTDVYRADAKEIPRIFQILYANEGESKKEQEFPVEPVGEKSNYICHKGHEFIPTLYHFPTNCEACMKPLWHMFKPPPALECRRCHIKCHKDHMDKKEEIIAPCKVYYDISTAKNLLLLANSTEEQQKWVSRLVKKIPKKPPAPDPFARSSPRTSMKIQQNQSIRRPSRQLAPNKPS
UniProt Q13464, whole entry: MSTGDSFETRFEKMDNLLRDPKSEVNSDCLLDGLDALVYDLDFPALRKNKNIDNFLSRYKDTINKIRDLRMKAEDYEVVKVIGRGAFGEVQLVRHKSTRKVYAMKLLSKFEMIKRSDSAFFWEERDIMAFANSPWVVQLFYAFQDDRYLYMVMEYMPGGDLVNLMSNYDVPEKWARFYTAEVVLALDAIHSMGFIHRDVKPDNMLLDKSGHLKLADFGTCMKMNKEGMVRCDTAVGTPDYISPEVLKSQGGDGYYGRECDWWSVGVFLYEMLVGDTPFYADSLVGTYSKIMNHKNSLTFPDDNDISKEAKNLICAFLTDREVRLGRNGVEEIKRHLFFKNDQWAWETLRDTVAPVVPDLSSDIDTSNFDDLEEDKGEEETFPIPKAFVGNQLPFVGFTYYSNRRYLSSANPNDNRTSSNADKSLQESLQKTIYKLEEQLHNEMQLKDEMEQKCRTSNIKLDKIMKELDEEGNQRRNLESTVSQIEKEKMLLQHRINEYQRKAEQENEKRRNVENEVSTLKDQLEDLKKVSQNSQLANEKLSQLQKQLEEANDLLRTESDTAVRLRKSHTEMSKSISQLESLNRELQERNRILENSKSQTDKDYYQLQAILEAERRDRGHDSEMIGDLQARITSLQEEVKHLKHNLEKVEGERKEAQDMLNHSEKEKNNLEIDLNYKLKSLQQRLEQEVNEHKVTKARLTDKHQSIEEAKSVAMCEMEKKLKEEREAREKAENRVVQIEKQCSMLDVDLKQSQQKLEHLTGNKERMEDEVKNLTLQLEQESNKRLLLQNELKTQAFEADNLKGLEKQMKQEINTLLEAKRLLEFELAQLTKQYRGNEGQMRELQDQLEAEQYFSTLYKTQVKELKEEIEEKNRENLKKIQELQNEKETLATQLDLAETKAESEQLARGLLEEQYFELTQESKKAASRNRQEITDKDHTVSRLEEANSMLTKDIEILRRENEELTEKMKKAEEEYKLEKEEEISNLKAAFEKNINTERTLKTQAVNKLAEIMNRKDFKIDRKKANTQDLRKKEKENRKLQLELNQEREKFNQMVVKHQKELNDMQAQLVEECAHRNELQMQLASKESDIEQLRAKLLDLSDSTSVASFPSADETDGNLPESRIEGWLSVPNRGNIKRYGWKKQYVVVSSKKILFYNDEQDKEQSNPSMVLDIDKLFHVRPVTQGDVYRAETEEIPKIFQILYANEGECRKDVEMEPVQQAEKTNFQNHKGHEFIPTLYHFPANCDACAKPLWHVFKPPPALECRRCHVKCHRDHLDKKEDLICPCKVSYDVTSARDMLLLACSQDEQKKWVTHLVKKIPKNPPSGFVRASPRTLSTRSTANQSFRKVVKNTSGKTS

How the values were obtained:
ROCK2 kinase = ROCK2 kinase (Homo sapiens, UniProt O75116); test: In vitro evaluation of ROCK2 kinase activity (HTRF KinEASE-STK time-resolved fluorometric assay); type: biochemical; details: read-out: IC50 for ROCK2
Protocol: ROCK2 activity screening. ROCK2 activity was detected using a 96-well (Cisbio) time-resolved fluorometric assay. The assay for ROCK2 was performed in the following assay buffer: 5 mM MgCl2 (Sigma), 1 mM DTT (Sigma) and 1× kinase buffer. The kinase buffer was used for dilution. 7.5 μL of ROCK2 kinase (Invitrogen, PV3759) was added to a 96-well microplate to reach a final concentration of 0.4 ng/μL, and then 0.25 μL of test compound (DMSO content: 1% (volume fraction)) was added. The mixture was incubated at room temperature for 0.5 h. To start the reaction, the kinase buffer was used to mix ATP (Aladdin) and the substrate STK-substrate 2-biotin. 7.5 μL of the mixed solution was added to the microplate to reach final concentrations of 6.739 μM and 1 μM. The resulting mixture was incubated for 2 h at room temperature. 5 mL of detection buffer was mixed with STK antibody-Cryptate, and then an appropriate volume of the mixture was mixed with an equal volume of streptavidin-XL665. 10 μL of the resulting mixture was added to the microplate to stop the reaction. After further incubation for about 1 h, the microplate was read on a Molecular Devices SpectraMax i3x multifunctional microplate reader. The kinase buffer, the STK-substrate 2-biotin, the detection buffer, the STK antibody-Cryptate, and the streptavidin-XL665 were all from HTRF KinEASE-STK kit (Cisbio, 1000 tests, 61[…]). […]

ROCK1 kinase = ROCK1 kinase (Homo sapiens, UniProt Q13464); test: In vitro evaluation of ROCK1 kinase selectivity (HTRF KinEASE-STK time-resolved fluorometric assay); type: biochemical; details: read-out: IC50 for ROCK1
Protocol: ROCK1 activity was detected using a 96-well (Cisbio) time-resolved fluorometric assay. The assay for ROCK1 was performed in the following assay buffer: 5 mM MgCl2 (Sigma), 1 mM DTT (Sigma) and 1× kinase buffer. The kinase buffer was used for dilution. 7.5 μL of ROCK1 kinase (Invitrogen) was added to a 96-well microplate to reach a final concentration of 0.4 ng/μL, and then 0.25 μL of test compound (DMSO content: 1%) was added. The mixture was incubated at room temperature for 0.5 h. To start the reaction, the kinase buffer was also used to mix ATP (Aladdin) and the substrate STK-substrate 2-biotin. 7.5 μL of the mixed solution was added to the microplate to reach final concentrations of 3.53 μM and 1 μM. The resulting mixture was incubated for 2 h at room temperature. […] was mixed with STK antibody-Cryptate, and then an appropriate volume of the mixture was mixed with an equal volume of streptavidin-XL665. 10 μL of the resulting mixture was added to stop the reaction. After further incubation for about 1 h, the microplate was read on a Molecular Devices SpectraMax i3x multifunctional microplate reader. The kinase buffer, the STK-substrate 2-biotin, the detection buffer, the STK antibody-Cryptate, and the streptavidin-XL665 were all from HTRF KinEASE-STK kit (Cisbio, 1000 tests, 61[…]). […]

- pIC50 (ROCK2 kinase): > 7.30
- pIC50 (ROCK1 kinase): > 7.30
Compound: COc1cc(F)cc(CNC(=O)c2noc3cc(-c4cn[nH]c4)ccc23)c1
